Assay: Analytical HPLC of Pluronic F-127 formulated substrates reconstituted in water (Examples 34-36)
Type: physicochemical
Settings: Example 34; JRW-0238, 100 μM
Protocol: 2.5 mgs of Pluronic® F-127 (Sigma Aldrich) were massed out into […] snap-top Eppendorf tubes. The polymer was heated to 70° C. in a water bath until melted, becoming a clear solution. A 174 mM stock solution of the coelenterazine analog, JRW-0238, was prepared in EtOH. 5 μL of this stock was added to the melted polymer and pipetted to mix. Two separate conditions were prepared: Condition 1—After the addition of the substrate, the substrate/polymer solution was dried under high vacuum for 30 minutes. Condition 2—After addition of substrate, the substrate/polymer solution was further diluted with 45 μL of water, frozen, and lyophilized overnight.
Samples from both conditions 1 and 2 were reconstituted in water, diluted to 100 μM, and analyzed for chemical integrity via analytical HPLC (FIG. 54).
This formulation was also prepared for the coelenterazine analog, furimazine. 2.5 mgs of Pluronic® F-127(Sigma Aldrich) were massed out into 1.5 mL, snap-top Eppendorf tubes. The polymer was heated to 70° C. in a water bath until melted. A 10 mM stock solution of furimazine was prepared in EtOH. 5 μL of this stock was then added to the melted polymer and pipetted to mix. […]
The samples in both condition 1 and 2 were reconstituted in water, diluted to 100 μM, and analyzed for substrate integrity via analytical HPLC (FIG. 55). […]

Area Percent, peak at retention time 4.357-4.366 min (main peak): 98.429%
SMILES: O=c1c(Cc2ccco2)nc2c(Cc3ccccc3)[nH]c(-c3cccc(O)c3)cn1-2 [JRW-0238, 8-benzyl-2-(furan-2-ylmethyl)-6-(3-hydroxyphenyl)imidazo[1,2-a]pyrazin-3(7H)-one]
